Activity calls are given as the source filed them. No cut-off for these calls is given here.
Key:
CWR22R = assay: Antiproliferative activity against human 22Rv1 cells assessed as reduction in cell viability at upto 128 uM measured after 72 hrs in presence of mifepristone by CCK-8 method; assay type: functional, cell-based
Androgen receptor [1] = biological target: T1, Androgen receptor (Homo sapiens, UniProt P10275); assay: Inhibition of androgen receptor in human LNCaP cells assessed as reduction in PSA level measured after 24 hrs by qRT-PCR analysis; assay type: cell-based; conditions: dose 1-20 µM
[2] = Toxicity in BALB/c nude mouse assessed as effect on body weight at 10 to 30 mg/kg, IG measured upto 14 days; assay type: organism-based; conditions: in vivo, po, 336 h, dose 10-30 mg/kg, time < 14 day
Androgen receptor [3] = biological target: T1, Androgen receptor; assay: Binding affinity to androgen receptor in human LNCaP cells assessed as increase in thermal stability at 100 uM incubated for 1 hr by Western blot analysis; assay type: cell-based
[4] = Toxicity in BALB/c nude mouse assessed as drug tolerance at 10 to 30 mg/kg, IG measured upto 14 days; assay type: organism-based; conditions: in vivo, po, 336 h, dose 10-30 mg/kg, time < 14 day
Androgen receptor [5] = biological target: T1, Androgen receptor; assay: Inhibition of androgen receptor in human LNCaP cells assessed as reduction in PSA level measured after 24 hrs in presence of 17-hydroxy-13,17-dimethyl-1,2,6,7,8,13,14,15,16,17-decahydro-3H-cyclopenta[a]phenanthren-3-one by Western blot analysis; assay type: cell-based; conditions: dose 1-20 µM
Androgen receptor [6] = biological target: T1, Androgen receptor; assay: Inhibition of androgen receptor in human LNCaP cells assessed as reduction in TMPRSS2 level measured after 24 hrs by qRT-PCR analysis; assay type: cell-based; conditions: dose 1-20 µM

By UniProt entry, the sequences of proteins in these tests, tags left out. Where a name states a change or a piece, a line headed by the entry shows the natural chain unless it says otherwise.
UniProt P10275: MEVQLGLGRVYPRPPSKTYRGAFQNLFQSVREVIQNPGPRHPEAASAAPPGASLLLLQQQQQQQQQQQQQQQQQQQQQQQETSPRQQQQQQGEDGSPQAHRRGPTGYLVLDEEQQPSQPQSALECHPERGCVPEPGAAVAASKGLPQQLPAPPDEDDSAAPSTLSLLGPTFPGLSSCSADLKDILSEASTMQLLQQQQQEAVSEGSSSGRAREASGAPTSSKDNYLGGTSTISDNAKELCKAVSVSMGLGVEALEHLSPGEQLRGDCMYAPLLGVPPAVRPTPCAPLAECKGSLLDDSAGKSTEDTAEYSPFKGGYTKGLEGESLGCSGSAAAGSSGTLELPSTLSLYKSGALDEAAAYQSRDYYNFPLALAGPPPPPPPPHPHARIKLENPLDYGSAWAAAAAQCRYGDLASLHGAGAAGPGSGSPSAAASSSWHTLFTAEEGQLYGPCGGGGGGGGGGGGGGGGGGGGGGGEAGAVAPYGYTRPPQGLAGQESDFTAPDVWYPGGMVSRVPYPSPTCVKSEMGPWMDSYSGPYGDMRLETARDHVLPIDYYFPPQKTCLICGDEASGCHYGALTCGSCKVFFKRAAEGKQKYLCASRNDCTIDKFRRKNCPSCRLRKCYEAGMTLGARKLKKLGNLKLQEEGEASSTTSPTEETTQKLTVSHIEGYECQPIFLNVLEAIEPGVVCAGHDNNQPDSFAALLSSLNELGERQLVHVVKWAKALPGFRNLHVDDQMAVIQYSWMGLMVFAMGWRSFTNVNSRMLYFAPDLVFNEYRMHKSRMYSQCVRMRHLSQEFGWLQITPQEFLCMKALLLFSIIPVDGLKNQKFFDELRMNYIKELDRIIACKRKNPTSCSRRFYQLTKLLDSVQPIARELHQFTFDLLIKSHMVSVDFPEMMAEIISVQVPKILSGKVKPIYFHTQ

Row | SMILES | Activity (CWR22R) | inhibition (Androgen receptor [1]) | Activity [2] | Activity (Androgen receptor [3]) | Activity [4] | inhibition (Androgen receptor [5]) | inhibition (Androgen receptor [6])
1 | CC(O)c1cc(C(=O)N[C@@H](C)Cn2ccc(-c3ccc(C#N)c(Cl)c3)n2)n[nH]1 (some centres not stated) [DAROLUTAMIDE] | Active |  |  |  |  |  | 
2 | N#Cc1ccc(NC(=O)c2cccc(S(=O)(=O)N3CCCc4ccccc43)c2)cc1 |  | Dose-Dependent Effect | Non-Toxic | Active | Non-Toxic | Dose-Dependent Effect | Dose-Dependent Effect
